According to patent US8663653B2, “Efficient cell culture system for hepatitis C virus genotype 2B” (priority 2008, dated 2014):

Tested on: JFH1-based recombinants of genotypes 1a, 1b, 2a, 2b, and 6a
Assay type: cell-based, hepatitis C virus

For interferon-α2b, the “decrease in supernatant HCV RNA titers” value was ~2 log.
